Experimental data published in patent US9795692B2, “Ocular detection of amyloid proteins” (SYSTEM OF SYSTEMS ANALYTICS, INC., priority 2011, dated 2017).

Assays:
Assay type in all cases: binding
[1] = tested on: amyloid aggregates in human eyes (optic nerve, ciliary retina, retina, drusen); assay: Staining of sectioned human donor eyes; conditions: Alzheimer's Disease patients
Source text: Human eyes from donors with and without Alzheimer's Disease were obtained from the Georgia Eye Bank. The eyes were sectioned and then stained with PEP-11 or BC750 (positive control), a small molecule dye used as a probe to detect Alzheimer's Disease.

[2] = target: T1, amyloid protein aggregate in human brain tissue (Homo sapiens, UniProt P05067); assay: Staining of human brain tissue (Alzheimer's Disease vs age-matched control)
T1 construct: from tissue; host or cells: human post-mortem brain tissue (neocortex, hippocampus, cerebral cortex)
Protocol: PEP-11 was prepared and applied to Alzheimer's Disease brain tissue and age-matched non-Alzheimer's Disease human brain tissue, used as a control.

[3] = target: T2, non-Congophilic amyloid protein aggregates in human brain tissue (Homo sapiens, UniProt P05067); assay: Staining of human hippocampal region and cerebral cortex compared with Congo Red
T2 construct: from tissue; host or cells: human post-mortem brain tissue (neocortex, hippocampus, cerebral cortex)
Source text: PEP-11 was used to stain human tissue from the hippocampal region and cerebral cortex of human brain tissue from patients with and without Alzheimer's Disease. The PEP-11 stain was compared with Congo Red staining of the same regions. FIG. 3 (Table 3) presents a subset of patients studied: (1) Patient 0001: person, with Alzheimer's Disease diagnosis, confirmed by post-mortem neuropathology indicating hippocampal pyramidal cell layer neurofibrillary tangles and plaques, entorhinal cortex containing extraneuronal tangles and many neurons containing neurofibrillary tangles; and (2) Patient 0002: person, without Alzheimer's Disease, confirmed by post-mortem neuropathology indicating subcortical white matter well myelinated, no Alzheimer's type II glia in neocortex and brain stem, no acute or chronic neuron loss in hippocampi, and no hippocampal sclerosis.

[4] = tested on: amyloid protein aggregates in brain tissue of transgenic mice with Alzheimer's Disease (Tg AD); assay: Staining of murine brain tissue with FITC-labeled probe; conditions: dentate gyms and midbrain
Protocol: Probes for detecting amyloid protein aggregates in brain tissue of transgenic mice with Alzheimer's Disease (Tg AD) were prepared in accordance with the methods described herein. Specifically, PEP-11 (SEQ ID NO: 56 labeled with FITC) was prepared and applied to Tg AD brain tissue and age-matched non-TG murine brain tissue, used as a control.

For “PEP-11: WT17-35 with FITC and d-Arginine at C-Terminal (CLVFFAEDVGSNKGAIIGLMC; FITC label, C-terminal D-arginine; /note=“Description of Artificial Sequence Synthetic probe”)”, the “relative staining in brain, posterior optic nerve and sensory retina” value [1] was “greatest in the brain and surrounding amyloid plaques, with less staining in the posterior optic nerve and even less staining in the sensory retina”, the “staining of Alzheimer's Disease brain tissue relative to control” value ([2]; human AD brain, neocortex and hippocampus) was “significantly greater degree” and the “staining of non-Alzheimer's Disease control brain tissue” value ([2]; human, age-matched control, neocortex or hippocampus) was “minimally stained”. For the same substance, the “staining of extracellular and neuronal structures” value ([3]; Patient 0001 with Alzheimer's Disease) was “staining was seen”, the “staining of extracellular and neuronal structures” value ([3]; Patient 0002, without Alzheimer's Disease) was “no staining” and the “structures stained in the cerebral cortex” value ([3]; cerebral cortex of patients with Alzheimer's Disease) was “stained non-Congophilic plaque-like structures in the vicinity of tangle neurons”. For the same substance, the “staining of morphological structures within the brain parenchyma” value ([3]; human brain parenchyma) was “Neither Congo Red nor PEP-11 stained any morphological structure”, the “structures stained in the hippocampal region” value ([3]; human brain tissue, hippocampal region) was “stained non-Congophilic plaque-like structures in the vicinity of the plaques” and the overall staining appearance ([3]; human brain tissue, relative to amyloid plaques stained by Congo Red) was “diffuse staining surrounding amyloid plaque centers”. The “staining of Tg AD brain tissue relative to non-Tg control” value [4] was “significantly greater degree”.
